Results published in patent US20250108038A1 (priority 2023, published 2025).

How the values were obtained:
[1] = Metabolic stability in human intestinal homogenate; assay type: in vitro ADME; settings: positive controls, 1 μM
[2] = molecular target: T1, OAT3 (Homo sapiens, UniProt Q8TCC7); experiment: Uptake transporter inhibition assay, OAT3 (estrone-3-sulfate); settings: 500.00 μM, reference inhibitor
T1 sequence (Q8TCC7 1-542): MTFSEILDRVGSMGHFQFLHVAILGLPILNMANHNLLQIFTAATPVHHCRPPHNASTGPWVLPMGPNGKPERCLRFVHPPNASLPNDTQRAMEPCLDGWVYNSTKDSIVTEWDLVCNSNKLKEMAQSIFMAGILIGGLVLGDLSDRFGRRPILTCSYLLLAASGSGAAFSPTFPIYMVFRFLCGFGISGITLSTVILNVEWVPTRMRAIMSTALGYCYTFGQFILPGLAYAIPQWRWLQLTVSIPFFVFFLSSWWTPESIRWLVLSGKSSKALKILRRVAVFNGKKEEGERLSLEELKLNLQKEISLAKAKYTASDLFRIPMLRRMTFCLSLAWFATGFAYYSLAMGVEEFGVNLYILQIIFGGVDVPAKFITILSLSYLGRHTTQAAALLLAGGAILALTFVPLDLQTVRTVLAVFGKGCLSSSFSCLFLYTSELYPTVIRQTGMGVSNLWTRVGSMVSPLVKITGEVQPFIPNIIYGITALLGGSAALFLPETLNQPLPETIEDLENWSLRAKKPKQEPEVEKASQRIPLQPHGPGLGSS

| Structure (SMILES) | Time [1] [min] | Relative transporter specific accumulation [2] |
| --- | --- | --- |
| O=c1ccc2ccc(O)cc2o1 [7-hydroxycoumarin, reference compound] | 91.1 | – |
| CCCN(CCC)S(=O)(=O)c1ccc(C(=O)O)cc1 [Probenecid] | – | 2.64 ± 0.09 % of control |
